Laboratory results published in article PMC7970304, “The Effects of Apelin and Elabela Ligands on Apelin Receptor Distinct Signaling Profiles” (Frontiers in Pharmacology, 2021).

Sequences of proteins named here, by UniProt entry; tags and fusion partners are left off. A change or cut given only in a name is not applied to a line headed by its entry.
UniProt P35414: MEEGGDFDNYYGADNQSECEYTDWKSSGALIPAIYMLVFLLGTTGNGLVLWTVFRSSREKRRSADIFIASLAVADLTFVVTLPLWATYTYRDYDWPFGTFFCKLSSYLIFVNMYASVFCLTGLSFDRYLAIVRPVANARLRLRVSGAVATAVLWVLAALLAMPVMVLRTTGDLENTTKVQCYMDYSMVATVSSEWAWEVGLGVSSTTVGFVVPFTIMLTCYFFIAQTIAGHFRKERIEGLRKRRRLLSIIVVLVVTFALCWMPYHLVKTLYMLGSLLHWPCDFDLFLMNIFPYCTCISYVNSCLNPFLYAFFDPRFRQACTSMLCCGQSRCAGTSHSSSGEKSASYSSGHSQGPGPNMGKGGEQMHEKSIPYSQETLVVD

Assays:
[1] = molecular target: APJ-Venus (UniProt P35414)
[2] = molecular target: APJ-Renilla luciferase (Rluc) (UniProt P35414)

- LogEC50 of the ligand-induced interaction of APJ with β-arrestin 1 (BRET between APJ-Venus and β-arrestin 1-Rluc, HEK293 cells) [1]: -7.18
- LogEC50 of the ligand-induced interaction of APJ with β-arrestin 2 (BRET between APJ-Venus and β-arrestin2-Rluc, HEK293 cells) [1]: -7.17
- LogEC50 of the ligand-induced recruitment of GRK2 to APJ (BRET between APJ-Rluc and GRK2-GFP2, HEK293 cells) [2]: -7.47
- LogEC50 of the ligand-induced recruitment of GRK5 to APJ (BRET between APJ-Rluc and GRK5-GFP2, HEK293 cells) [2]: -7.23
Substance: Elabela-21 (from UniProt P0DMC3 23-54) (peptide)
